# Measured affinities in a library of Ab-14 light chain variants

Values reported by Li et al. 2023, doi:10.1038/s41467-023-39022-2 (FLAb copy).

Antigen: PDVDLGDISGINAS, a 14-residue peptide of the SARS-CoV-2 spike HR2 region.

Each scFv is VH, three GGGGS repeats, VL, as in the parent Ab-14, and differs from it in the CDRs of the light chain only.
VH: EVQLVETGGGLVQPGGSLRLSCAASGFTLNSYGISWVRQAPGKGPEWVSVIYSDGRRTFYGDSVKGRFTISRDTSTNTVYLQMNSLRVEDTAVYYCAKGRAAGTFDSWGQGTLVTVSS
VL: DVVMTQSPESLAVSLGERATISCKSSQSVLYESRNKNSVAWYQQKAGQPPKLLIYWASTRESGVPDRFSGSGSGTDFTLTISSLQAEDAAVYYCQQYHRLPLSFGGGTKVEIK

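The starting antibody came from a phage panning campaign against this peptide. The variants were designed computationally from a first round of random CDR variants and then made and measured. Group labels follow the data file (Ctrl: baseline library sampled from a position-specific scoring matrix, with some repeated check sequences; Rand: our label for a block that the file lists under HC and that is probably the random mutants of the ten best first-round binders; GP: Gaussian process model; HC: hill climbing; Gen: genetic algorithm; Gibbs: Gibbs sampling; a sequence that several methods proposed may carry one label only). AlphaSeq pools MATa yeast showing the antibodies with MATalpha yeast showing the peptide. Mating (16 h, 30 °C) was followed by selection of diploids and sequencing of their barcodes. Each replicate has its own calibration line, from reference interactions of the BCL2 family. The assay was run in six technical replicates.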

Each variant is given by its three light chain CDRs, as the data file delimits them; those of the parent are KSSQSVLYESRNKNSVA, WASTRES, QQYHRLPLS.
This list holds designs with at most six substitutions.
Each Kd is an estimate from the mating assay, the geometric mean of the replicates in which the pair was seen; lower is stronger.
A pair that was not seen in any replicate is written "nd"; this usually means weak binding, but a binder can also be missed.
Three control strains display no target. For all light chain designs, 4% of the pairings with them gave a signal, with a median of 430 nM and one signal in twenty below 38 nM, so weak values seen in few replicates may be background. Also given: how often the same scFv was detected with the empty control strains.

With KSSQSVLYESRNKNSVA, NASTRDS, QQYMRLPLS [Ctrl] the result was 860 pM (6 of 6 replicates; controls 0 of 18).
With KLQQSWLYESRNKNSVA, HASQRES, QQYHRLPLS [GP_Gen] the result was 1.7 nM (6 of 6 replicates; controls 0 of 18).
With KLSQSVLMESRNCNSVA, NASTRES, QQYHRLPLS [GP_Gen] the result was 860 pM (6 of 6 replicates; controls 2 of 18).
With KSSQSVLYESRNKNSVA, WASTRES, QQYHRIPLS [Ctrl] the result was 610 nM (2 of 6 replicates; controls 1 of 18).
With KSSQSVLYESRNCNSVA, SASTRIS, QQYHRLPLS [Ctrl] the result was 18 nM (6 of 6 replicates; controls 1 of 18).
With KLRQSTLYESRNDNSVA, NASTRES, QQYHRLPLS [GP_HC] the result was 7.5 nM (6 of 6 replicates; controls 0 of 18).
With KLSQSQLYDSQNKNSVA, NASTRES, QQYHRLPLS [GP_HC] the result was 1.1 nM (6 of 6 replicates; controls 0 of 18).
With KLSQSKEYESRQKNSVA, NASTREL, QQYHRLPLS [GP_Gibbs] the result was 1.9 nM (6 of 6 replicates; controls 0 of 18).
With KLPQSVLYESRNKNSVA, NASTRES, QQYHRLPLM [GP_Gen] the result was 410 pM (6 of 6 replicates; controls 0 of 18).
With KFSQSVLYESRNKNAVA, WASTRES, QQYHRLPLS [Ctrl] the result was 1.1 nM (6 of 6 replicates; controls 0 of 18).
With KLSQSVDYESRNKNSVA, NASQRES, QQYHRLPLS [GP_Gen] the result was 540 pM (6 of 6 replicates; controls 3 of 18).
With KQSPSVLQESRNKNSVA, DASTRES, QQYHRLPLS [GP_HC] the result was 830 pM (6 of 6 replicates; controls 1 of 18).
With KVSQSVLYESRMKNSVA, DASTRCS, QQYHRLPLF [GP_HC] the result was 1.3 nM (6 of 6 replicates; controls 2 of 18).
With KSSQSFLYESRNKNSVA, GCSTRES, QQYHRLTLS [Rand] the result was 1.5 nM (6 of 6 replicates; controls 0 of 18).
With KISQSWLYEDRVKNSVA, GASTRES, QQYHRLPLS [GP_HC] the result was 1.6 nM (6 of 6 replicates; controls 0 of 18).
With KSSQSVLKESRNKNSVA, EASCRES, QQYHRLPLS [Ctrl] the result was 26 nM (6 of 6 replicates; controls 1 of 18).
With HQSFSVLYESRNKNSVA, NGSTREV, QQYHRLPLS [GP_HC] the result was 2.3 nM (6 of 6 replicates; controls 1 of 18).
With NLSQSWLYESRNKNSVA, GANTRES, QQYHRLPLS [GP_HC] the result was 650 pM (6 of 6 replicates; controls 2 of 18).
With KSSQSWLYESRNKNSVA, GASTRES, QAYHRLPLS [GP_HC] the result was 11 nM (6 of 6 replicates; controls 1 of 18).
With KSSTSGLYESRMKNSVA, EASTRES, QQYHRLPLS [GP_HC] the result was 910 pM (6 of 6 replicates; controls 1 of 18).
With KHPQGVLYESRNKNSVA, GASTRES, QQYHRLPLS [GP_HC] the result was 24 nM (3 of 6 replicates; controls 0 of 18).
With KLQQDVLYESRNKNSVA, QASTRMS, QAYHRLPLS [GP_Gibbs] the result was 1.2 nM (6 of 6 replicates; controls 2 of 18).
With KSDQAVLYESRNKNSVA, DASTRES, QQYHRLPLS [Ctrl] the result was 1.8 nM (6 of 6 replicates; controls 0 of 18).
With KSNQSVLGEDRNMNSVA, WASTRAS, QQYHRLPLS [Ctrl] the result was 6.3 nM (6 of 6 replicates; controls 1 of 18).
With KVSQSELYESRNKNSVA, NASTRED, QQYHRLPLS [GP_Gen] the result was 1.2 nM (6 of 6 replicates; controls 1 of 18).
With KMSQSVLYESGNKNSVA, TGSTRES, QQYHRLPLS [Ctrl] the result was 1.3 nM (6 of 6 replicates; controls 1 of 18).
With KLSQSGLYESRNKNSVA, NASYRES, QQYHRLPLS [GP_Gen] the result was 3.9 nM (6 of 6 replicates; controls 0 of 18).
With KMSQSELYESRNKNSVA, NGSTRES, QQYHRLPLS [GP_Gen] the result was 410 pM (6 of 6 replicates; controls 0 of 18).
With KFSQSELYESRNKNSVA, NASTRMS, QQYHRLPLS [GP_Gen] the result was 510 pM (6 of 6 replicates; controls 1 of 18).
With KSSQSVLYESSNKNSVA, WASQRES, QQYHWLPLS [Ctrl] the result was nd (0 of 6 replicates; controls 0 of 18).
With KLSQSVLYESRNKNSVA, WASTRES, QQVHRLPLA [Ctrl] the result was nd (0 of 6 replicates; controls 0 of 18).
With KLSQSHLYESRNSNSVA, DASTRES, QQYHRLPLS [GP_Gen] the result was 1.1 nM (6 of 6 replicates; controls 0 of 18).
With KSSQSVLYESRNKNSVA, AASIRIS, QQKHRLPLS [Ctrl] the result was nd (0 of 6 replicates; controls 0 of 18).
With KLSQSWLYESRNSKSVA, DASTRLS, QQYHRLPLS [GP_Gibbs] the result was 750 pM (6 of 6 replicates; controls 1 of 18).
With KLRQSTLYESRNKSSVA, WASTNES, QQYHRLPGS [Rand] the result was nd (0 of 6 replicates; controls 1 of 18).
With DYSQSWLYESRNKNSVA, GASTRES, QQYHRLPLS [GP_HC] the result was 800 pM (6 of 6 replicates; controls 3 of 18).
With KLMQSMLYESRNKNSVA, NASQRLS, QQYHRLPLS [GP_Gen] the result was 820 pM (6 of 6 replicates; controls 0 of 18).
With KRSQSVLEESRNKQSVA, WASTRES, QQYHRLPLS [Ctrl] the result was nd (0 of 6 replicates; controls 0 of 18).
With KQSQSVLYEQVNKNSVA, DASTRMS, QQYHRLPLS [GP_HC] the result was nd (0 of 6 replicates; controls 0 of 18).
With KLYQSDLYESRNKNSVA, EASTRES, QQYHRLPLS [GP_Gen] the result was 440 pM (6 of 6 replicates; controls 2 of 18).
With KLPQSTLYESRNKNSVA, NASTRES, QQYHRLPLS [GP_Gen] the result was 290 pM (6 of 6 replicates; controls 1 of 18).
With KSSQSVDYEGRNKNSVA, WAGTRES, QHYHRLPLS [Ctrl] the result was 7.2 µM (1 of 6 replicates; controls 0 of 18).
With KSSISTLYESRNKNSVA, EASTRES, QQYHRLPLM [GP_HC] the result was 1.5 nM (6 of 6 replicates; controls 2 of 18).
With KLSMSVLYESRNKNNVA, DASTRES, QQYHRLPLS [GP_Gen] the result was 600 pM (6 of 6 replicates; controls 0 of 18).

The first 7 entries again:

{"CDR-L1": "KSSQSVLYESRNKNSVA", "CDR-L2": "NASTRDS", "CDR-L3": "QQYMRLPLS", "group": "Ctrl", "apparent Kd": "860 pM", "seen in": "6/6", "empty controls": "0/18"}
{"CDR-L1": "KLQQSWLYESRNKNSVA", "CDR-L2": "HASQRES", "CDR-L3": "QQYHRLPLS", "group": "GP_Gen", "apparent Kd": "1.7 nM", "seen in": "6/6", "empty controls": "0/18"}
{"CDR-L1": "KLSQSVLMESRNCNSVA", "CDR-L2": "NASTRES", "CDR-L3": "QQYHRLPLS", "group": "GP_Gen", "apparent Kd": "860 pM", "seen in": "6/6", "empty controls": "2/18"}
{"CDR-L1": "KSSQSVLYESRNKNSVA", "CDR-L2": "WASTRES", "CDR-L3": "QQYHRIPLS", "group": "Ctrl", "apparent Kd": "610 nM", "seen in": "2/6", "empty controls": "1/18"}
{"CDR-L1": "KSSQSVLYESRNCNSVA", "CDR-L2": "SASTRIS", "CDR-L3": "QQYHRLPLS", "group": "Ctrl", "apparent Kd": "18 nM", "seen in": "6/6", "empty controls": "1/18"}
{"CDR-L1": "KLRQSTLYESRNDNSVA", "CDR-L2": "NASTRES", "CDR-L3": "QQYHRLPLS", "group": "GP_HC", "apparent Kd": "7.5 nM", "seen in": "6/6", "empty controls": "0/18"}
{"CDR-L1": "KLSQSQLYDSQNKNSVA", "CDR-L2": "NASTRES", "CDR-L3": "QQYHRLPLS", "group": "GP_HC", "apparent Kd": "1.1 nM", "seen in": "6/6", "empty controls": "0/18"}

In the paper, a design with two or fewer of six values counts as a poor binder.
Values of this round are not directly comparable with the first-round values of the same sequences.